This assay deals with Apoptosis regulator Bcl-2 (Homo sapiens, UniProt P10415). The experiment in a line: Inhibition of F-Bak binding to GST-tagged BCL2 (unknown origin) measured after 1 hr by TR-FRET assay. In general terms: TR-FRET usually uses a lanthanide donor and a delayed reading to cut background.

Sequences of proteins named here, by UniProt entry; tags and fusion partners are left off.
UniProt P10415, whole entry: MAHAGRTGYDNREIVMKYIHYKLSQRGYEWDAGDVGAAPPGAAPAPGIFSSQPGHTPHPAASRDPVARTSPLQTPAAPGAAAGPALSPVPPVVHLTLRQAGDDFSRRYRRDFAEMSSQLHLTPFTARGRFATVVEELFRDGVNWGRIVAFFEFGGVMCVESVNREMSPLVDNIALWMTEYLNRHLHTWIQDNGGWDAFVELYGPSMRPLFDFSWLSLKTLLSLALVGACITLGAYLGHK

Where only a bound is given, the exact number is not on record here.

The compound `CC1(C)CCC(c2ccc(Cl)cc2)=C(CN2CCN(c3ccc(C(=O)NS(=O)(=O)c4ccc(N[C@H](CCN5CCOCC5)CSc5ccccc5)c(S(=O)(=O)C(F)(F)F)c4)cc3)CC2)C1` [NAVITOCLAX] registered a Ki below 0.1 nM.

One may read the Ki as a dissociation constant, usually derived from enzyme kinetics or from competition with a known ligand. Higher therefore signals a looser hold on the target.

Source of the values: ChEMBL document CHEMBL4706772, “Structure-Based Design of A-1293102, a Potent and Selective BCL-X Inhibitor” (ACS Med Chem Lett, 2021).
